Results as given in ChEMBL document CHEMBL1129506, “2,4-Diarylpyrrolidine-3-carboxylic acids--potent ETA selective endothelin receptor antagonists. 1. Discovery of A-127722” (J Med Chem, 1996).

Protein sequences, listed by entry. Tags and fused reporters are not part of them.
UniProt P26684, whole entry: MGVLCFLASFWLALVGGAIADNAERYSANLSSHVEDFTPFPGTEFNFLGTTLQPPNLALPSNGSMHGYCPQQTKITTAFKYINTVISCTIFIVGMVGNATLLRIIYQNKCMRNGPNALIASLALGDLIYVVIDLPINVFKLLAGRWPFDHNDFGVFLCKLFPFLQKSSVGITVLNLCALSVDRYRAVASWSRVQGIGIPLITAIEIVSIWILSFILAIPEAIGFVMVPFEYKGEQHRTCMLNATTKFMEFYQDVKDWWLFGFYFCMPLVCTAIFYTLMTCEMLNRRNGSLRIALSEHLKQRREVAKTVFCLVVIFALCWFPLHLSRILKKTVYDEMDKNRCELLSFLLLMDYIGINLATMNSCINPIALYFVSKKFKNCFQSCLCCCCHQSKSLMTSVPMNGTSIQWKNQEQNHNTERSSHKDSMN

Target: Endothelin-1 receptor (Rattus norvegicus, UniProt P26684)
Experiment: Inhibitory activity against the Endothelin A receptor of rat MMQ cells
Assay type: cell-based

## COc1ccc([C@@H]2[C@@H](C(=O)O)[C@H](c3ccc4c(c3)OCO4)CN2C(=O)COc2ccc(F)cc2)cc1
  IC50: 14.1 µM
